{
  "source": "patent US20100111867A1",
  "about": "“CARBORANE-PHOSPHONIUM COMPOUNDS AND THEIR USE IN BORON NEUTRON CAPTURE THERAPY AND IMAGING” (THE UNIVERSITY OF SYDNEY, priority 2007, published 2010)",
  "origin": "cited, not measured here",
  "tested_on": "canine brain tumour",
  "settings": "11C-labelled, PET; cited from earlier work",
  "data": [
    {"substance": "triphenylmethylphosphonium (TPMP) iodide [TPMP iodide]", "values": [
      {"measurement": "time retained in the tumour", "value": "ca. 95 min"}
    ]}
  ]
}
